In article PMC6685155, “Simultaneous UPLC–TQ-MS/MS determination of six active components in rat plasma: application in the pharmacokinetic study of Cyclocarya paliurus leaves” (Chinese Medicine, 2019):

Assay: Pharmacokinetic study in rats after oral administration of the CP extract (UPLC–TQ-MS/MS of plasma)
Type: in vivo, Sprague–Dawley rats
Settings: rat plasma, single oral gavage of CP extract 10.5 g/kg, n=6, mean ± SD
Experimental: Plasma samples were thawed at room temperature before analysis. Then, 10 μl of IS solution (20 μg/ml) and 200 μl of methanol were added to the plasma sample (90 μl) in a 1.5 ml Eppendorf tube. The mixture was vortexed for 1 min and centrifuged at 12,000×g for 10 min at 4 °C to deproteinize. Thereafter, 2 μl of the supernatant was injected into the UPLC–TQ/MS system for analysis.
Six healthy male Sprague–Dawley rats were fasted for 12 h with free access to water prior to the experiment. The CP extract was administered to rats by oral gavage at a dose of 10.5 g/kg body weight. Blood samples of approximately 0.5 ml were collected at 15 and 30 min and at 1 h, 2 h, 3 h, 4 h, 6 h, 8 h, 10 h, 12 h, and 24 h in heparinized centrifuge tubes from the ophthalmic vein using a sterile capillary tube under anesthesia after oral administration of the CP extract. Following centrifugation at 4000×g for 10 min at 4 °C, plasma samples were transferred to polypropylene tubes and stored at − 80 °C until analysis.
The concentrations of six analytes in plasma at different time points were expressed as mean ± SD, which was calculated from the daily calibration curve. All the pharmacokinetic parameters were processed through non-compartmental analysis using the DAS 3.0 pharmacokinetic program. The maximum plasma concentration (Cmax) and time to reach the maximum concentrations (Tmax) were obtained directly from the curve.

Substance: kaempferol-3-O-rhamnoside
- AUC0−t: 553.16 ± 270.45 ng·h/mL
- AUC0−∞: 614.20 ± 254.97 ng·h/mL
- Tmax: 0.42 ± 0.13 h
- t1/2: 2.42 ± 1.29 h
- Cmax (non-compartmental): 263.55 ± 119.77 ng/mL
